Laboratory results reported in patent US20080262037A1, “Piperidine Derivatives for the Treatment of Chemokine Mediated Disease” (ASTRAZENECA AB, priority 2004, published 2008).

Amino acid sequences for entries named in this document (tags omitted).
UniProt P35367, whole entry: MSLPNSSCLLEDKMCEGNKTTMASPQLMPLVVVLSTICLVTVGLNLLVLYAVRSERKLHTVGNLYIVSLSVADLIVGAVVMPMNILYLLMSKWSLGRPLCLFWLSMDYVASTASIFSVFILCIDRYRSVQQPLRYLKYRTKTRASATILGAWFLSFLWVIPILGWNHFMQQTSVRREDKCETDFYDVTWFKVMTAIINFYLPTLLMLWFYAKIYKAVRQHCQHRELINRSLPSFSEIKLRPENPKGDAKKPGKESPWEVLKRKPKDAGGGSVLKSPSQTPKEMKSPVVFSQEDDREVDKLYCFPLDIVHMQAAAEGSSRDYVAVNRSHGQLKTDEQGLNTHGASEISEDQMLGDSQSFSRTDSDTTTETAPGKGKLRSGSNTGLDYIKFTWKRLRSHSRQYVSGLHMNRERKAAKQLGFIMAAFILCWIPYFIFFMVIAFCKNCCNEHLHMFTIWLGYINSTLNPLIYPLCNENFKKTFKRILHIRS

Target: T1, human H1 receptor (Homo sapiens, UniProt P35367)
T1 construct: purchased Euroscreen SA, Brussels, Belgium ES-390-M; host or cells: CHO-K1 cells (membranes)
Assay: Histamine H1 receptor binding, competition displacement of [3H]-pyrilamine
Conditions: displacement of 1 nM [3H]-pyrilamine; membranes from recombinant CHO-K1 cells expressing the human H1 receptor; 1 hour at room temperature

**Q.** “[2-(4-{[4-(3,4-dichlorophenoxy)piperidin-1-yl]methyl}piperidin-1-yl)-4-methylphenoxy]acetic acid acetate [Example 43]” was tested. Which “H1 pKi/[1328_S]” value did it give?
**A.** 7.8
